## Binding of CDR-mutated scFvs to a peptide of the spike HR2 region

Target peptide (SARS-CoV-2 spike, HR2 region): PDVDLGDISGINAS

Each scFv is VH, the linker GGGGSGGGGSGGGGS, VL, as in the parent Ab-14, and differs from it in the CDRs of the heavy chain only.
VH: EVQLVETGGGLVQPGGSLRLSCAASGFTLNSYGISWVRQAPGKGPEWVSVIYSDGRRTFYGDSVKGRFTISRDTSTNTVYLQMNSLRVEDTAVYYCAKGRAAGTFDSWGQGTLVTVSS
VL: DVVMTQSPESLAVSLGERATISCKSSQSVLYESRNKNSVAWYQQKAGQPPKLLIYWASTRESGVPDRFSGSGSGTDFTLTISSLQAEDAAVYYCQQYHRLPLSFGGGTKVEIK

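Library AAYL49 holds single substitutions and randomly drawn double and triple substitutions in the CDRs. Affinity was read by AlphaSeq, a pooled yeast mating assay with surface-displayed partners. Pairs that bind mate more often; barcode pairs of the diploids are counted by sequencing. Scores were corrected for input abundance and mapped to Kd with protein pairs of known affinity run in the same pool. The assay was run in three technical replicates.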

Substitutions are numbered in sequence along the VH above, starting at 1 (not Kabat). Values are log10 of the apparent Kd in nM; lower means stronger binding. The mean shown is taken over the replicates in which the pair was detected. A pair that was not seen in that replicate is written "ND"; this usually means weak binding, but a binder can also be missed. Parent in this assay: reference entry 0.65, copy in this library 4.11 (one replicate of three).

changes,"log10 Kd, replicates","log10 Kd (nM), mean"
I34E+I51Q+R56Q,ND / ND / ND,ND
N30S+R57Y+A102P,5.49 / ND / ND,5.49
G26S+S31E+F59I,3.89 / 2.97 / 4.44,3.76
F27C+I34A+R56C,ND / 3.31 / ND,3.31
D62I+K65F,ND / ND / ND,ND
Y52N+F105L+D106R,ND / ND / ND,ND
G26N+G33M+I34T,ND / ND / ND,ND
F27N+I34V+A101F,2.77 / 1.59 / ND,2.18
F27D+D54C+D62P,ND / 4.36 / ND,4.36
G33Y+R100Q+S107F,ND / ND / ND,ND
I34R+V50P+G61C,ND / ND / ND,ND
G33L+V50W+V64G,ND / ND / ND,ND
I51G+R57M+G99L,ND / ND / ND,ND
I51F+G55I+G103Q,ND / ND / 4.68,4.68
T28V+S53D+R100L,ND / ND / 2.94,2.94
F27I+I34F+A101D,ND / ND / 3.95,3.95
F27L+A102E,ND / ND / ND,ND
F27S+G99E+T104L,1.48 / 1.61 / 1.51,1.53
G55T+R56V+D62W,ND / ND / ND,ND
G33R+G99Q+F105Y,ND / 2.78 / ND,2.78
I34H+R56S+S63Y,ND / ND / ND,ND
Y52F+G55M,ND / ND / ND,ND
G26P+G99N+S107T,ND / ND / 5.36,5.36
S53T+D54P,5.06 / 4.91 / ND,4.98
F27I+T28L+G99E,ND / ND / ND,ND
S31N+F59D+T104W,ND / 2.42 / ND,2.42
G26V+R56H+S63E,ND / ND / 4.35,4.35
F27E+S35P+D62Q,ND / ND / ND,ND
G26M+T58W+S63Y,ND / ND / ND,ND
S35H+G55M+T58W,ND / ND / ND,ND
D54V+F59S+A101H,ND / ND / ND,ND
I34Y+T58E+K65R,4.88 / 4.04 / ND,4.46

The last 3 entries again:

{"changes": "S35H+G55M+T58W", "log10 Kd, replicates": "ND / ND / ND", "log10 Kd (nM), mean": "ND"}
{"changes": "D54V+F59S+A101H", "log10 Kd, replicates": "ND / ND / ND", "log10 Kd (nM), mean": "ND"}
{"changes": "I34Y+T58E+K65R", "log10 Kd, replicates": "4.88 / 4.04 / ND", "log10 Kd (nM), mean": "4.46"}

Three control strains display no target. For library AAYL49, 15% of the pairings with them gave a signal, with a median of 4.06 and one signal in twenty below 2.83, so weak values seen in few replicates may be background.

From the AlphaSeq antibody data of Engelhart et al. 2022 (doi:10.1038/s41597-022-01779-4), copy in the FLAb collection.